Bioassay records deposited in PubChem by Broad Institute.
miR-122 sensor: miR-122 Renilla sensor signal increase in Huh7, primary screen, miR-122 inhibitor project, cell-based, single point, plate reader; AID 602342, 2012; hit rate 0.3% among 340,000; Huh7 miR-122 Renilla luciferase sensor, 48 h; neutral wells = 0, positive control = 100; activation (reporter increase), % at 12.5 µM;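 active = mean replicate activation score at least 90 and every replicate individually at or above 90; inconclusive = only one of the two criteria met; inactive = neither criterion met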;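 note: higher luciferase means less miR-122 activity so hits act as miR-122 inhibitors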
MITF act: activators of MITF-driven TRPM1 promoter reporter, primary screen, cell-based, SK-MEL-5, luciferase, single point | activation, % at 12.5 µM | hit rate 0.75% among 300,000 | AID 588334, 2011 | SK-MEL-5 TRPM1-promoter luciferase, 24 h; % of positive control, neutral wells = 0;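 active = mean activation of at least 80% with every replicate also reaching 80%; inconclusive = mean reaches 80% but some replicate falls short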;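 note: 0% = neutral control wells and 100% = parthenolide positive control wells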
PglD DTNB: C. jejuni PglD acetyltransferase inhibitors, primary screen, biochemical, DTNB colorimetric, single point; hit rate 0.098% among 360,000; AID 602405, 2012; inhibition, % at 12.5 µM; purified PglD enzyme, DTNB colorimetric CoA detection; in the data active = inhibition above about 16%, passing the limit was not always enough; inconclusive = no clear call, values can overlap the other calls
Wnt act: Wnt/beta-catenin pathway activators, primary screen, cell-based, plate reader, single point; Wnt/beta-catenin reporter cell assay, activator; hit rate 1.2% among 300,000; AID 743398, 2014; activation, % at 9.35 µM; in the data active = activation above about 30%, passing the limit was not always enough; inconclusive = no clear call, values can overlap the other calls;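 note: 0% = neutral control wells and 100% = positive control wells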
UUG fidelity: modulators of start codon recognition fidelity in yeast; AID 602363; activity score, % at 18.7 µM; S. cerevisiae UUG-firefly luciferase reporter, luminescence/redox ratio; 0.13% of 350,000 active;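 active = replicate mean at a twofold rise or more, about +100% in these data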;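 note: firefly luciferase made from a UUG start codon reports start codon fidelity; reporter light over untreated wells divided by growth signal over untreated wells; some hits fall short of that in this replicate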
esBAF inh: Bmi1 luciferase reporter increase in mESCs, primary screen, esBAF inhibitor project, mouse ES cells, Bmi1 luciferase knock-in, single point; hit rate 2% among 350,000; 24 h; 100% = twice the neutral-well signal; reporter increase, % at 12.5 µM; in the data active = activation above about 40%; inconclusive = no clear call, values can overlap the other calls;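 note: 0% = median of the plate's neutral control wells and 100% = double that signal; a rise in the Bmi1 reporter signal indicates esBAF inhibition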
* marks the source's active call; other numbers are inactive results; u = inconclusive; x = not tested or not shown; [ ] = dose if it differs, or a comment. The list is not random: actives were taken first. Their share in the collection is about 2.8%.

[1] Nc1ccc2c(c1)Cc1cc(Cl)c(Cl)cc1-2
[2] Nc1ccc2c(c1)Cc1c(F)cccc1-2
[3] C[C@@H]1CCCCO[C@H](CN(C)C(=O)NC2CCCCC2)[C@@H](C)CN([C@@H](C)CO)C(=O)c2cc(NC(=O)Nc3ccc(C(F)(F)F)cc3)ccc2O1
[4] CC(C)CCOC(=O)C1C(c2ccccc2)C(C(=O)O)C1c1ccccc1 (stereo unspecified)
[5] CCOC(=O)C1=C(CSc2nc(-c3ccccc3)ccc2C#N)OC(N)=C(C#N)C1c1ccc(OC)cc1 (stereo unspecified)
[6] CCOC(=O)C1=C(CSc2nc(CC)c(C)cc2C#N)OC(N)=C(C#N)C1c1ccccc1 (stereo unspecified)
assay / compound	1	2	3	4	5	6
miR-122 sensor	-4	-5	-14[16.7 µM]	-4	4	5
MITF act	25	65	x	6	72	x
PglD DTNB	0	2	7	-10	2	-2
Wnt act	4	x	x	43*	x	x
UUG fidelity	0	-10	7	-11	7	42
esBAF inh	x	57*	-13	-6	54*	5

[7] C=C(C)CNC(=S)Nc1cccc(S(=O)(=O)NC2=NCCC2)c1
[8] C=C(C)CNC(=S)Nc1nc2c(cc1C(=O)OCC)CCCC2
[9] COc1ccc(-c2nc(SC)n(S(=O)(=O)c3ccccc3)n2)cc1
[10] CO[C@H]1CN(C)C(=O)c2ccc(NC(=O)Nc3ccc4c(c3)OCO4)cc2OC[C@@H](C)NC[C@@H]1C
[11] CO[C@@H]1CN(C)C(=O)c2ccc(NC(=O)Nc3ccc4c(c3)OCO4)cc2OC[C@H](C)NC[C@H]1C
[12] CO[C@H]1CN(C)C(=O)c2cc(NC(=O)Nc3ccccc3)ccc2OC[C@H](C)N(C(=O)CC2CC2)C[C@@H]1C
assay / compound	7	8	9	10	11	12
miR-122 sensor	13	10	-5	x	x	x
MITF act	-3	83*	56	x	x	x
PglD DTNB	4	-6	-6	5	1	2
Wnt act	-3	30	x	x	x	x
UUG fidelity	-18	-14	36	x	x	x
esBAF inh	-3	62*	53*	56*	93*	48*

The closing two compounds of the section above come first, to join the parts.
[11] CO[C@@H]1CN(C)C(=O)c2ccc(NC(=O)Nc3ccc4c(c3)OCO4)cc2OC[C@H](C)NC[C@H]1C
[12] CO[C@H]1CN(C)C(=O)c2cc(NC(=O)Nc3ccccc3)ccc2OC[C@H](C)N(C(=O)CC2CC2)C[C@@H]1C
[13] CO[C@H]1CN(C)C(=O)c2ccc(NC(=O)c3ccc4c(c3)OCO4)cc2OC[C@@H](C)NC[C@H]1C
[14] CO[C@H]1CN(C)C(=O)c2ccc(NC(=O)c3ccc4c(c3)OCO4)cc2OC[C@H](C)NC[C@@H]1C
[15] COCC(=O)N1C[C@H](C)[C@H](OC)CN(C)C(=O)c2ccc(NC(=O)Nc3ccccc3)cc2OC[C@@H]1C
[16] COc1ccc(C(=O)NCCC2=CCCCC2)cc1OC1CCN(C(C)C)CC1
[17] C=CCNC(=S)NNC(=O)COc1ccc2cc(Br)ccc2c1
[18] O=C(Nc1nc2ccccc2s1)Nc1ccc(F)cc1F
assay / compound	11	12	13	14	15	16	17	18
miR-122 sensor	x	x	x	x	x	0	-12	x
MITF act	x	x	x	x	x	27	75	x
PglD DTNB	1	2	-1	4	-2	-7	2	3
Wnt act	x	x	x	x	x	16	10	38*
UUG fidelity	x	x	1	-4	-1	-15	-19	-15
esBAF inh	93*	48*	-2	-2	6	60*	41*	22

[19] COc1n[nH]c(C(=O)Nc2nc3ccccc3s2)c1[N+](=O)[O-]
[20] Nc1ccc(C(=O)Nc2nc3ccccc3s2)cc1
[21] O=C(Nc1nc(=O)c2ccccc2s1)c1ccc(F)cc1
[22] O=C(Nc1ccc(F)cc1F)Nc1sccc1-c1nc2ccccc2s1
[23] COc1n[nH]c(C(=O)NCc2ccccc2)c1[N+](=O)[O-]
[24] CO[C@H]1CN(C)C(=O)c2ccc(NC(C)=O)cc2OC[C@@H](C)N(CC2CC2)C[C@@H]1C
assay / compound	19	20	21	22	23	24
miR-122 sensor	x	9	3	-4	2	-5[16.7 µM]
MITF act	-12	7	62	x	-5	x
PglD DTNB	x	-5	-3	x	x	0
Wnt act	53*	35*	-2	0	-1	x
UUG fidelity	x	-35	-11	x	x	-11
esBAF inh	x	-17	51*	-2	x	-6

[25] CCCNC(=O)Nc1ccc2c(c1)OC[C@@H](C)N(Cc1ccc(-c3ccccn3)cc1)C[C@@H](C)[C@@H](OC)CN(C)C2=O
[26] Fc1cccc2sc(Nc3nc4ccccc4s3)nc12
[27] Cc1cc(C)n(-c2ccc(C(=O)Nc3nc4ccccc4s3)cc2)n1
[28] Cc1ccnc2nc(C(=O)Nc3nc4ccccc4s3)nn12
[29] Fc1ccc2nc(Nc3nc4c(F)cccc4s3)sc2c1
assay / compound	25	26	27	28	29
miR-122 sensor	x	5	1	21	x
MITF act	x	29	56	15	9
PglD DTNB	-1	0	-2	-7	x
Wnt act	x	36*	u	38*	x
UUG fidelity	-2	-9	-11	-35	x
esBAF inh	-5	u	44*	-16	x
